Read-outs that look alike come from different tables or passages of the source. Marks after values point to notes of the source that are not given here.
Legend:
[1] = Rapid equilibrium dialysis, protein binding in plasma; assay type: in vitro ADME; settings: C57BL/6N, mouse, plasma (pooled samples from the study mice), mean (range)
Protocol: Plasma samples collected from individual mice at each time point were pooled into composite samples due to insufficient sample volumes for performing RED. Similarly, brain homogenate samples from individual time points were pooled. RED was performed according to the manufacturer’s protocol (for details, see the Supplementary Materials). The free drug fraction in plasma was calculated by using Equation 1:
Rapid Equilibrium Dialysis. Briefly, 50 µL of drug-spiked plasma or 100 µL of 10-fold diluted brain homogenates were added to the sample chambers of the RED device, while 300 µL or 350 µL of phosphate-buffered saline (PBS, pH at 7.4) were added to the corresponding buffer chambers. Each pooled sample was analysed in triplicate. Control samples consisting of plasma and brain homogenates from the study, spiked with clozapine and trazodone at a target concentration of 100 ng/mL, were analysed in each measurement series. Each plate was sealed with aluminium foil and incubated at 37 ± 1 °C with an agitation at 350 rpm on an orbital shaker (Randox PHMP, Grant Instruments Ltd, Shepreth, Cambridgeshire, England) for 4 hours. After incubation, a matrix-matching procedure was performed: 10 µL of each post-dialysis sample was mixed with an equal volume of PBS, while 10 µL of each buffer sample was mixed with the corresponding blank plasma or brain homogenate. […]

[2] = Rapid equilibrium dialysis, binding in brain homogenates; assay type: in vitro ADME, mice; settings: C57BL/6N, mouse, mean (range), pooled samples, read-out: unbound fraction in the brain homogenate
Protocol: Plasma samples collected from individual mice at each time point were pooled into composite samples due to insufficient sample volumes for performing RED. Similarly, brain homogenate samples from individual time points were pooled. RED was performed according to the manufacturer’s protocol (for details, see the Supplementary Materials). The free drug fraction in plasma was calculated by using Equation 1: […]
The free drug fraction in the brain homogenate was determined by using Equation 2, which accounts for the effect of tissue dilution on the unbound fraction:
fu,brain=1/D/(1/fu,diluted−1)+1/D
were D is the dilution factor in the brain homogenate and the fu,diluted associated free fraction determined as the ratio of concentrations in the buffer versus the diluted brain tissue.
Rapid Equilibrium Dialysis. Briefly, 50 µL of drug-spiked plasma or 100 µL of 10-fold diluted brain homogenates were added to the sample chambers of the RED device, while 300 µL or 350 µL of phosphate-buffered saline (PBS, pH at 7.4) were added to the corresponding buffer chambers. Each pooled sample was analysed in triplicate. Control samples consisting of plasma and brain homogenates from the study, spiked with clozapine and trazodone at a target concentration of 100 ng/mL, were analysed in each measurement series. […]

[3] = Brain penetration (brain homogenate AUCt, Kp,brain, Kp,uu,brain); settings: for AUCt brain homogenate: t = 24 hours, mean (95% CI)
Protocol: After a 1-week acclimation period, the mice were randomly assigned to 2 experimental groups of 36 animals each: (1) an LPS group was given a single 4 mg/kg intraperitoneal (IP) injection of lipopolysaccharide (LPS), serotype O55:B05 (Sigma) and (2) a control group received a vehicle (sterile phosphate-buffered saline). […] The volume load for mice weighing 25 g was 125 µL. […] The doses of DMSO and MC were 276 and 25 mg/kg. […] Sampling was performed at 2 intervals in each of the 18 mice injected with LPS and 18 controls. The first blood volume of 150 µL was taken into an EDTA-microvette CB 300 (Sardstedt) from a drop of blood after a small incision at the end of the tail. At the termination interval, the second blood sample was collected by cardiac puncture in terminal anesthesia, and then the animal was put to death by decapitation. […] The injected volume was 1 mL/kg, that is, 25 µL for a 25 g mouse. […] The injected volume was 2.5 mL/kg, that is, […]. After IV administrations, blood was sampled at 3, 5, 10, 20, and 40 minutes, and 1, 1.5, 2, 3, 4, and 6 hours. Blood samples were taken at 3 intervals in each mouse. The first 2 samples of 75 µL each were taken from the retroorbital plexus under brief anesthesia and the third terminal sample was described for oral dosing. Plasma samples were obtained from whole blood by centrifugation at 2000 × g for 5 minutes at 4°C. Whole brain, liver, and intestine were excised and immediately frozen in liquid nitrogen. All samples were stored at −80°C until analysis.
Details of the analysis can be found in the Supplementary Materials.
The calculation of the point estimate and the 95% bootstrap t-confidence interval for AUCt was performed with the help of the R-package PK (https://cran.r-project.org/web/packages/PK/index.html). Total brain-to-plasma drug partition coefficient (Kp,brain) and unbound brain-to-unbound plasma partition coefficient (Kp,uu, brain) were calculated using Equations 3 and 4:
Kp,brain=AUCt,brain/AUCt,plasma
Kp, uu,brain=fu,brain × AUCt,brain/fu, plasma × AUCt,plasma

[4] = C57BL/6N, mouse, in vivo, po
in vivo = settings: C57BL/6N, mouse
[5] = cited from earlier work
[6] = cited from earlier work; for Kp,uu / Kp for total olanzapine: rat brain
[7] = cited from earlier work; remark: listed apart in the source
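Throughout, for increase of absolute bioavailability Fp.o., LPS vs controls: pharmacokinetic model fitted to concentration-time data, with between-animal variability described exponentially, residual error proportional, and effect of LPS injection assessed on clearance and distribution volumes.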

## Cc1cc2c(s1)Nc1ccccc1N=C2N1CCN(C)CC1 [olanzapine]
[1]; pH 7.4, LPS mice
  fraction unbound at 4 h: 0.401
[1]; pH 7.4, control mice
  fraction unbound at 4 h: 0.416
[2]; pH 7.4, LPS mice
  fraction unbound at 4 h: 0.291
[2]; pH 7.4, control mice
  fraction unbound at 4 h: 0.274
[3]; Controls, 0.5 mg/kg IV OL
  Kp,brain: 5.5
  Kp,uu,brain: 3.6
[3]; Controls, 4 mg/kg PO OL
  Kp,brain: 6.3
  Kp,uu,brain: 4.1
  AUCt brain homogenate: 758 (661–854) hour × ng/mg
[3]; LPS mice, 0.5 mg/kg IV OL
  Kp,brain: 8.3
[3]; LPS mice, 4 mg/kg PO OL
  Kp,brain: 8.5
  Kp,uu,brain: 6.2
  AUCt brain homogenate: 3950 (1850–6040)* hour × ng/mg
[4]
  increase of absolute bioavailability Fp.o., LPS vs controls: 3.1 fold
In vivo
  clearance: 47.3 mL/min/kg
[5]; mice dosed with 10 mg/kg
  CL/F: 462 mL/min/kg
[5]; mice, IP injection 2 mg/kg
  CL/F: 28.3 mL/min/kg
[5]; mice, IP injection 25 mg/kg
  CL/F: 40 mL/min/kg
[6]; brainstem
  Kp,uu: 0.86
[6]; cerebellum
  Kp for total olanzapine: 1.9
[6]; frontal cortex
  Kp for total olanzapine: 4.1
  Kp,uu: 1.8
[6]; rats with depletion of gut microbiota by three antibiotics for 14 days
  increase of bioavailability of oral olanzapine: 1.8 fold
[7]; favorable response but poor tolerance
  lower therapeutic range: 20 to 40 ng/mL
[7]; population pharmacokinetic study
  reduction in oral clearance during infections: 25%
